The chains behind the UniProt entries cited, without tags or fusion partners. Residues count along the entry.
UniProt Q05769, 18-604 V335I/N580A: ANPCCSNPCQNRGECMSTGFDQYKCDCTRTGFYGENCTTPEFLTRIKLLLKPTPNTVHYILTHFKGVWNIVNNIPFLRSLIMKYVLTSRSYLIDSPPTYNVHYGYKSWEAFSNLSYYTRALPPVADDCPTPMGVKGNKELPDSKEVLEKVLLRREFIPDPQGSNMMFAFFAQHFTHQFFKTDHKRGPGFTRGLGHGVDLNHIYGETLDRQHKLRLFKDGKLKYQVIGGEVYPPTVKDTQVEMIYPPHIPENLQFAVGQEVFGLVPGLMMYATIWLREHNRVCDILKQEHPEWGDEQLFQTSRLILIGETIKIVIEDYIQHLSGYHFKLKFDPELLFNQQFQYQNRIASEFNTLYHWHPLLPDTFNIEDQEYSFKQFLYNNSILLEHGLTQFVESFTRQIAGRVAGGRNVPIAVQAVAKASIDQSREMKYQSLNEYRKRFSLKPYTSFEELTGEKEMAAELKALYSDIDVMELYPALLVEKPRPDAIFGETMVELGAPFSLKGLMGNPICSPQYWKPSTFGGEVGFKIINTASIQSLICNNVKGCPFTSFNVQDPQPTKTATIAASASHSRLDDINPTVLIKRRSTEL

According to PMC8103790 (Biochemistry, 2019):

Molecular target: V349I murine COX-2 (muCOX-2) (Mus musculus, UniProt Q05769, V335I/N580A)

## CCCCC/C=C\C/C=C\C/C=C\C/C=C\CCCC(=O)O [AA, 5Z, 8Z, 11Z, 14Z-eicosatetraenoic acid]
  X-ray crystal structure, 2.2 Å: Clear electron density was observed for AA bound within the cyclooxygenase channel of each monomer of the V349I:AA crystal structure.
